Where two headings read alike, the source gives them in different places.

Common to all, as to assay: single-molecule fluorescence burst analysis
Test [1] concerns the target Wild-type Aβ (1–40) peptide.
The target of test [2] is Wild-type Aβ (1–40) peptide. The source holds these as a separate data set.
Test [3] concerns the target Wild-type Aβ (1–42) peptide.

For the substance “Atto488-Aβ40 (peptide; Atto 488 bound to the N-terminus; other documents disagree on this pair)”, the results for the mean of the oligomer size distribution, μ1 (relative photon number N phot,rel) in test [1] and in test [2] were 2.7 N¯phot,mon and 2.88 N¯phot,mon, respectively. For the substance “Atto488-Aβ42 (peptide; Atto 488 bound to the N-terminus; other documents disagree on this pair)”, the mean of the oligomer size distribution, μ1 (relative photon number N phot,rel) in test [3] is 4.49 N¯phot,mon. On to “HL488-Aβ40 (peptide; HiLyte 488 bound to the N-terminus; other documents disagree on this pair)”, for which the mean of the oligomer size distribution, μ1 (relative photon number N phot,rel) in test [1] is 4.1 N¯phot,mon. As to “HL647-Aβ40 (peptide; HiLyte 647 bound to the N-terminus; other documents disagree on this pair)”, the mean of the oligomer size distribution, μ1 (relative photon number N phot,rel) in test [1] is 10.6 N¯phot,mon.

The values above are taken from paper PMC6350010.
